Test results: BindingDB's records for doi:10.1021/jm991098z (Friedrich-Alexander University, 2000)

Sequences of proteins named here, by UniProt entry; tags and fusion partners are left off.
UniProt P20288, whole entry: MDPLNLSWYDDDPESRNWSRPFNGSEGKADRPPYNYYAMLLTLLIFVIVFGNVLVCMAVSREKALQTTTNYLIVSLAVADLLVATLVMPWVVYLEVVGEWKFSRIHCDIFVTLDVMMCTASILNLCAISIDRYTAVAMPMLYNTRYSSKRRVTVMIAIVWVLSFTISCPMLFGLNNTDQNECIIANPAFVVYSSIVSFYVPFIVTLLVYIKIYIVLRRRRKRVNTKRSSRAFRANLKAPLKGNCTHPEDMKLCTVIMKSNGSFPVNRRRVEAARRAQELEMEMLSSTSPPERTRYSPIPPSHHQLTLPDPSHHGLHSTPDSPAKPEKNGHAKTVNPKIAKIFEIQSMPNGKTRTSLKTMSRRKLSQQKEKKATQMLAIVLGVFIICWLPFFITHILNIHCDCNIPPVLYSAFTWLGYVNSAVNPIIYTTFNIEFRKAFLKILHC

Molecular target: D(2) dopamine receptor (Bos taurus, UniProt P20288)
Test: Binding Affinity was tested on relative proportion of high Affinity Site of Bovine dopamine receptor D2. Tested for ability to displace the radioligand [3H]spiperone at the binding site.

With `C#CC1=CCC(N(CCC)CCC)CC1` (stereo unspecified) [(4-Ethynyl-cyclohex-3-enyl)-dipropyl-amine] the RH was 40%.
